Measured values published in patent US10717966B2, “Stem cell-derived hepatocytes in co-culture and uses thereof” (Colorado State University Research Foundation, priority 2014, dated 2020).

System: CYP1A2
Test: CYP1A2 induction in iMPCCs (7-ethoxyresorufin O-dealkylation)
Format: cell-based, human

CYP1A2 fold induction in iMPCCs as % of values in PHH-MPCCs: ~70%
Substance: β-naphthoflavone
